pIC50: −log10 of the molar value.
Molecular target: isolated polymerase domain (I1780-V2590) of DNA polymerase theta (Polθ) (Homo sapiens (Human), UniProt O75417)
Experiment: biochemical

The chains behind the UniProt entries cited, without tags or fusion partners. Residues count along the entry.
UniProt O75417, 1780-2590: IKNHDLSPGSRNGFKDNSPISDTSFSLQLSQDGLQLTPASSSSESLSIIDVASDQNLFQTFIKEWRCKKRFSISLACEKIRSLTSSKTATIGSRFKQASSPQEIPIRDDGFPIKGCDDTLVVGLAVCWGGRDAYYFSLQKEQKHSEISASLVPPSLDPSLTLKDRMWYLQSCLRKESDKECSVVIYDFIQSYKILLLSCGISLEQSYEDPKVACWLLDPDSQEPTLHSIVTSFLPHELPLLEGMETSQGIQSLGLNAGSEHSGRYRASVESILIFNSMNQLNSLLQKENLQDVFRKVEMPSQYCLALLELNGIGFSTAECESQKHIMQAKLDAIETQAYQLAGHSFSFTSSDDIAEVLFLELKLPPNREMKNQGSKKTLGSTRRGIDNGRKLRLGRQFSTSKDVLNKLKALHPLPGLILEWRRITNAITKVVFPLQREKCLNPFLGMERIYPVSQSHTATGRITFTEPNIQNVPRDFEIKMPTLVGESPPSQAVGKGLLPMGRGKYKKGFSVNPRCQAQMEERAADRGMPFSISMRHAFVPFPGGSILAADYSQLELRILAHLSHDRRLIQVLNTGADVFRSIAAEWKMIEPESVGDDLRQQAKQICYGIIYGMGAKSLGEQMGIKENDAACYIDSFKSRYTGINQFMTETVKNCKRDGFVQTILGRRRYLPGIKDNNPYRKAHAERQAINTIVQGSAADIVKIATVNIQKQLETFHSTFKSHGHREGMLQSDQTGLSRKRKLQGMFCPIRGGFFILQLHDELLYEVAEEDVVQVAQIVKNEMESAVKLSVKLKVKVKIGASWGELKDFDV

C[C@@H](CCOc1ccc(-c2nc3c(OC4(C)CC4)ncnc3n2Cc2cccc(Cl)c2)c(Cl)c1)C(=O)O (single isomer, unassigned; isomer 2) [Example 35, 4-(3-Chloro-4-(9-(3-chlorobenzyl)-6-(1-methylcyclopropoxy)-9H-purin-8-yl)phenoxy)-2-methylbutanoic acid (Isomer 2)]
pIC50: 8.40

Cc1ccnc(Cn2c(-c3ccc(OCCN4CCOCC4=O)cc3Cl)nc3c(OC4(C)CC4)ncnc32)c1 [Example T481, 4-(2-(3-chloro-4-(6-(1-methylcyclopropoxy)-9-((4-methylpyridin-2-yl)methyl)-9H-purin-8-yl)phenoxy)ethyl)morpholin-3-one]
pIC50: 8.20

C[C@H](Oc1cccc(-c2nc3c(OC4(C)CC4)ncnc3n2Cc2cccc(Cl)c2)c1Cl)C(=O)O [Example T90, (S)-2-(2-chloro-3-(9-(3-chlorobenzyl)-6-(1-methylcyclopropoxy)-9H-purin-8-yl)phenoxy)propanoic acid]
pIC50: 8.20

Cc1ccnc(Cn2c(-c3ccc(OCC(=O)NC4COC4)cc3Cl)nc3c(OC4(C)CC4)ncnc32)c1 [Example T323, 2-(3-chloro-4-(6-(1-methylcyclopropoxy)-9-((4-methylpyridin-2-yl)methyl)-9H-purin-8-yl)phenoxy)-N-(oxetan-3-yl)acetamide]
pIC50: 8.10

Cc1ccnc(Cn2c(-c3ccc(CC(=O)NCCO)cc3Cl)nc3c(OC4(C)CC4)ncnc32)c1 [Example T224, 2-(3-chloro-4-(6-(1-methylcyclopropoxy)-9-((4-methylpyridin-2-yl)methyl)-9H-purin-8-yl)phenyl)-N-(2-hydroxyethyl)acetamide]
pIC50: 8.20

COc1ccc(C(F)(F)F)cc1Cn1c(-c2ccc(OCC[C@H](C)C(=O)O)cc2Cl)nc2c(OC3(C)CC3)ncnc21 [Example U76, (S)-4-(3-chloro-4-(9-(2-methoxy-5-(trifluoromethyl)benzyl)-6-(1-methylcyclopropoxy)-9H-purin-8-yl)phenoxy)-2-methylbutanoic acid]
pIC50: 8.40

Cc1ccnc(Cn2c(-c3ccc(OCCNC(N)=O)cc3Cl)nc3c(OC4(C)CC4)ncnc32)c1 [Example T133, 1-(2-(3-chloro-4-(6-(1-methylcyclopropoxy)-9-((4-methylpyridin-2-yl)methyl)-9H-purin-8-yl)phenoxy)ethyl)urea]
pIC50: 8.60

Cc1ccnc(Cn2c(-c3ccc(OCCN4CCNCC4)cc3Cl)nc3c(OC4(C)CC4)ncnc32)c1F [Example T504, 8-(2-chloro-4-(2-(piperazin-1-yl)ethoxy)phenyl)-9-((3-fluoro-4-methylpyridin-2-yl)methyl)-6-(1-methylcyclopropoxy)-9H-purine]
pIC50: 8.30

Cc1cc(OCCN2CCN(C)CC2)ncc1-c1nc2c(OC3(C)CC3)ncnc2n1Cc1ccccc1 [Example C3, 9-benzyl-8-(4-methyl-6-(2-(4-methylpiperazin-1-yl)ethoxy)pyridin-3-yl)-6-(1-methylcyclopropoxy)-9H-purine]
pIC50: 8.60

Cc1ccnc(Cn2c(-c3ccc(N4CCOC4=O)cc3Cl)nc3c(OC4(C)CC4)ncnc32)c1 [Example T96, 3-(3-chloro-4-(6-(1-methylcyclopropoxy)-9-((4-methylpyridin-2-yl)methyl)-9H-purin-8-yl)phenyl)oxazolidin-2-one]
pIC50: 8.10

Cc1ccnc(Cn2c(-c3ccc(C(=O)N4CC5(CNC5)C4)cc3Cl)nc3c(OC4(C)CC4)ncnc32)c1 [Example T428, (3-chloro-4-(6-(1-methylcyclopropoxy)-9-((4-methylpyridin-2-yl)methyl)-9H-purin-8-yl)phenyl)(2,6-diazaspiro[3.3]heptan-2-yl)methanone]
pIC50: 8.60

CCC(=O)N1CC(Oc2ccc(-c3nc4c(OC5(C)CC5)ncnc4n3Cc3cc(C)ccn3)c(Cl)c2)C1 [Example T471, 1-(3-(3-chloro-4-(6-(1-methylcyclopropoxy)-9-((4-methylpyridin-2-yl)methyl)-9H-purin-8-yl)phenoxy)azetidin-1-yl)propan-1-one]
pIC50: 8.30

CC1(Oc2ncnc3c2nc(-c2ccc(CC(N)=O)cc2Cl)n3CCc2ccccc2)CC1 [Example T102, 2-(3-chloro-4-(6-(1-methylcyclopropoxy)-9-phenethyl-9H-purin-8-yl)phenyl)acetamide]
pIC50: 7.80

Cc1ccnc(Cn2c(-c3ccc(OC4CN(C(N)=O)C4)cc3Cl)nc3c(OC4(C)CC4)ncnc32)c1 [Example T205, 3-(3-chloro-4-(6-(1-methylcyclopropoxy)-9-((4-methylpyridin-2-yl)methyl)-9H-purin-8-yl)phenoxy)azetidine-1-carboxamide]
pIC50: 8.20

Cc1ccnc(Cn2c(-c3ccc(C(=O)N(C)CCC#N)cc3Cl)nc3c(OC4(C)CC4)ncnc32)c1 [Example T286, 3-chloro-N-(2-cyanoethyl)-N-methyl-4-(6-(1-methylcyclopropoxy)-9-((4-methylpyridin-2-yl)methyl)-9H-purin-8-yl)benzamide]
pIC50: 7.20

COc1ccc(F)cc1Cn1c(-c2ccc(OCCC(C)C(=O)O)cc2Cl)nc2c(OC3(C)CC3)ncnc21 (racemic) [Example U2, 4-(3-chloro-4-(9-(5-fluoro-2-methoxybenzyl)-6-(1-methylcyclopropoxy)-9H-purin-8-yl)phenoxy)-2-methylbutanoic acid]
pIC50: 8.30

Cc1ccnc(Cn2c(-c3ccc(OCC(=O)N4CC[C@@H](CO)C4)cc3Cl)nc3c(OC4(C)CC4)ncnc32)c1 [Example T578, (R)-2-(3-chloro-4-(6-(1-methylcyclopropoxy)-9-((4-methylpyridin-2-yl)methyl)-9H-purin-8-yl)phenoxy)-1-(3-(hydroxymethyl)pyrrolidin-1-yl)ethan-1-one]
pIC50: 8.00

Cc1cnc(Cn2c(-c3ccc(OCCN4CCNCC4)cc3Cl)nc3c(OC4(C)CC4)ncnc32)cc1C [Example T596, 8-(2-chloro-4-(2-(piperazin-1-yl)ethoxy)phenyl)-9-((4,5-dimethylpyridin-2-yl)methyl)-6-(1-methylcyclopropoxy)-9H-purine]
pIC50: 8.20

CC1(Oc2ncnc3c2nc(-c2ccc(OCCN4CCNCC4)cc2Cl)n3Cc2ncccc2F)CC1 [Example T351, 8-(2-chloro-4-(2-(piperazin-1-yl)ethoxy)phenyl)-9-((3-fluoropyridin-2-yl)methyl)-6-(1-methylcyclopropoxy)-9H-purine]
pIC50: 7.70

CNC(=O)Nc1ccc(-c2nc3c(OC4(C)CC4)ncnc3n2Cc2cc(C)ccn2)c(Cl)c1 [Example T66, 1-(3-chloro-4-(6-(1-methylcyclopropoxy)-9-((4-methylpyridin-2-yl)methyl)-9H-purin-8-yl)phenyl)-3-methylurea]
pIC50: 8.40

CC1(Oc2ncnc3c2nc(-c2ccc(CCCC(=O)O)cc2Cl)n3Cc2cccc(Cl)c2)CC1 [Example T155, 4-(3-chloro-4-(9-(3-chlorobenzyl)-6-(1-methylcyclopropoxy)-9H-purin-8-yl)phenyl)butanoic acid]
pIC50: 8.30

Cc1ccnc(Cn2c(-c3ccc(CC(=O)N4CC5CC(C4)N5)cc3Cl)nc3c(OC4(C)CC4)ncnc32)c1 [Example T555, 1-(3,6-diazabicyclo[3.1.1]heptan-3-yl)-2-(3-chloro-4-(6-(1-methylcyclopropoxy)-9-((4-methylpyridin-2-yl)methyl)-9H-purin-8-yl)phenyl)ethan-1-one]
pIC50: 8.50

Cc1ccnc(Cn2c(-c3ccc(CC(=O)N4CCC(O)CC4)cc3Cl)nc3c(OC4(C)CC4)ncnc32)c1 [Example T574, 2-(3-chloro-4-(6-(1-methylcyclopropoxy)-9-((4-methylpyridin-2-yl)methyl)-9H-purin-8-yl)phenyl)-1-(4-hydroxypiperidin-1-yl)ethan-1-one]
pIC50: 8.10

CC1(Oc2ncnc3c2nc(-c2ccc(CC(N)=O)cc2Cl)n3Cc2cc(C#N)ccc2F)CC1 [Example T77, 2-(3-chloro-4-(9-(5-cyano-2-fluorobenzyl)-6-(1-methylcyclopropoxy)-9H-purin-8-yl)phenyl)acetamide]
pIC50: 8.10

CC1(Oc2ncnc3c2nc(-c2ccc(OCCCN4CC[C@@H](O)C4)cc2Cl)n3Cc2cc(C(F)(F)F)ccn2)CC1 [Example T554, (R)-1-(3-(3-chloro-4-(6-(1-methylcyclopropoxy)-9-((4-(trifluoromethyl)pyridin-2-yl)methyl)-9H-purin-8-yl)phenoxy)propyl)pyrrolidin-3-ol]
pIC50: 8.10

Cc1ccnc(Cn2c(-c3ccc(O[C@@H]4CCNC4=O)cc3Cl)nc3c(OC4(C)CC4)ncnc32)c1 [Example T186, (R)-3-(3-chloro-4-(6-(1-methylcyclopropoxy)-9-((4-methylpyridin-2-yl)methyl)-9H-purin-8-yl)phenoxy)pyrrolidin-2-one]
pIC50: 8.40

Cc1ccnc(Cn2c(-c3ccc(OC4CNC(=O)C4)cc3Cl)nc3c(OC4(C)CC4)ncnc32)c1 (racemic) [Example T179, 4-(3-chloro-4-(6-(1-methylcyclopropoxy)-9-((4-methylpyridin-2-yl)methyl)-9H-purin-8-yl)phenoxy)pyrrolidin-2-one]
pIC50: 8.20

Cc1ccnc(Cn2c(-c3ccc(OC4CN(C(=O)[C@@H](C)O)C4)cc3Cl)nc3c(OC4(C)CC4)ncnc32)c1 [Example T482, (R)-1-(3-(3-chloro-4-(6-(1-methylcyclopropoxy)-9-((4-methylpyridin-2-yl)methyl)-9H-purin-8-yl)phenoxy)azetidin-1-yl)-2-hydroxypropan-1-one]
pIC50: 8.30

Cc1ccnc(Cn2c(-c3ccc(C4CCC(=O)N4)cc3Cl)nc3c(OC4(C)CC4)ncnc32)c1 (single isomer, unassigned) [Example T172, 5-(3-chloro-4-(6-(1-methylcyclopropoxy)-9-((4-methylpyridin-2-yl)methyl)-9H-purin-8-yl)phenyl)pyrrolidin-2-one]
pIC50: 8.10

Cc1ccnc(Cn2c(-c3ccc(OC4CCNCC4)cc3Cl)nc3c(OC4(C)CC4)ncnc32)c1 [Example T354, 8-(2-chloro-4-(piperidin-4-yloxy)phenyl)-6-(1-methylcyclopropoxy)-9-((4-methylpyridin-2-yl)methyl)-9H-purine]
pIC50: 8.30

Cc1ccnc(Cn2c(-c3ccc(OCC(F)(F)CO)cc3Cl)nc3c(OC4(C)CC4)ncnc32)c1 [Example T98, 3-(3-chloro-4-(6-(1-methylcyclopropoxy)-9-((4-methylpyridin-2-yl)methyl)-9H-purin-8-yl)phenoxy)-2,2-difluoropropan-1-ol]
pIC50: 8.20
